{
  "source": "PubChem BioAssay AID588413",
  "about": "(Sanford-Burnham Center for Chemical Genomics, 2011)",
  "note": "Only a part is listed here, and it is no random draw. The source made the active and inactive calls.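 How the source made its calls: active means inhibition above about 55% (limit read from the data); inactive means the rest.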",
  "data": [
    {"assay": "blockers of Gli reporter signaling – luciferase luminescence, Sufu-KO-LIGHT cells, uHTS, primary screen (AID 588413);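 further: 0% = DMSO-treated cells and 100% = wells with medium but no cells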", "details": "Sufu-KO-LIGHT fibroblasts, at 5 µM, stronger effect = higher value", "values": [
      {"smiles": "CCOC(=O)c1ccc(NC(=O)C(C)(CCl)SC)cc1", "note": "(stereo not drawn)", "inhibition": "inactive: -16%"},
      {"smiles": "O=C(OC1CN2CCC1CC2)c1cccc([N+](=O)[O-])c1", "note": "(stereo not drawn)", "inhibition": "inactive: 25.6%"},
      {"smiles": "CCC(C)N(CC(C)C)C(=S)SC(NC(C)=O)C(Cl)(Cl)Cl", "note": "(stereo not drawn)", "inhibition": "inactive: 9.44%"},
      {"smiles": "COP1(=S)c2c(C)nn(CCC#N)c2N=C(c2ccc(F)cc2)N1C", "note": "(stereo not drawn)", "inhibition": "inactive: 5.88%"},
      {"smiles": "O=C(Nc1ccncc1[N+](=O)[O-])c1ccc([N+](=O)[O-])cc1[N+](=O)[O-]", "inhibition": "inactive: -0.95%"},
      {"smiles": "O=C(COc1ccccc1)OC1CN2CCC1CC2", "note": "(stereo not drawn)", "inhibition": "inactive: 1.92%"},
      {"smiles": "CCOC(=O)Nc1cccc([As](=O)(O)O)c1", "inhibition": "inactive: 22.1%"},
      {"smiles": "O=[N+]([O-])c1ccc(Nc2ccc(Oc3ccc([N+](=O)[O-])cc3[N+](=O)[O-])cc2)c([N+](=O)[O-])c1", "inhibition": "inactive: -7.79%"},
      {"smiles": "O=P(Nc1ccccn1)(c1cccc2ccccc12)c1cccc2ccccc12", "inhibition": "inactive: -3.05%"},
      {"smiles": "Cc1cc(SC(NC=O)C(Cl)(Cl)Cl)ncn1", "note": "(stereo not drawn)", "inhibition": "inactive: -4.04%"},
      {"smiles": "CC1CCNP(=O)(N(CCCl)CCCl)O1", "note": "(stereo not drawn)", "inhibition": "inactive: 7.47%"},
      {"smiles": "CCOC(=O)Nc1ccc([As](=O)(O)O)c(O)c1", "inhibition": "inactive: 7.61%"},
      {"smiles": "Cc1cc(SC(NC(=O)c2ccccc2)C(Cl)(Cl)Cl)nc(C(C)C)n1", "note": "(stereo not drawn)", "inhibition": "inactive: -3.01%"},
      {"smiles": "CCCCOc1ccc(C(=O)NCC2(N3CCCCC3)CCCCC2)cc1OC", "inhibition": "inactive: 35.5%"},
      {"smiles": "CC(C)c1ccc(OP(=O)(Nc2ccccn2)Oc2ccccc2F)cc1", "note": "(stereo not drawn)", "inhibition": "inactive: 2.87%"},
      {"smiles": "COC(=O)C1(C)COP(=O)(N2CCCCCC2)OC1", "note": "(stereo not drawn)", "inhibition": "inactive: -5.11%"},
      {"smiles": "ClCCSc1nnc(-c2cccnc2)o1", "inhibition": "inactive: -13.7%"},
      {"smiles": "O=[N+]([O-])c1cc([N+](=O)[O-])c(-c2ccn[nH]2)s1", "inhibition": "inactive: 10.8%"},
      {"smiles": "CCN(CC)C(=S)SC(NC=O)C(Cl)(Cl)Cl", "note": "(stereo not drawn)", "inhibition": "inactive: -0.59%"},
      {"smiles": "O=C(OC1CN2CCC1CC2)c1cccc2[nH]cnc12", "note": "(stereo not drawn)", "inhibition": "inactive: 8.22%"},
      {"smiles": "CC(C)NC(=O)NP(=O)(Oc1ccccc1)Oc1ccccc1", "inhibition": "inactive: -2.4%"},
      {"smiles": "COc1cc(C(=O)NCC2(N3CCOCC3)CCCCC2)ccc1OCC(C)C", "inhibition": "inactive: 24.2%"},
      {"smiles": "O=[N+]([O-])c1ccc(-c2cc([N+](=O)[O-])c(O)c([N+](=O)[O-])c2)cc1", "inhibition": "inactive: -8.24%"},
      {"smiles": "O=[As](O)(c1ccc(O)cc1)c1ccccc1O", "inhibition": "inactive: -12.6%"},
      {"smiles": "C[As](=O)(O)c1cccc(C(=O)O)c1", "inhibition": "inactive: 4.99%"},
      {"smiles": "Cc1ccc2nc3c(c(C)c2c1)CC(C(Cl)Cl)S3", "note": "(stereo not drawn)", "inhibition": "inactive: -31%"},
      {"smiles": "Cc1ccc(OP(=O)(Nc2ccc([N+](=O)[O-])cn2)Oc2ccc(C)cc2)cc1", "inhibition": "inactive: 3.82%"},
      {"smiles": "COc1ccc(N/C(=N/P(=O)(N2CCOCC2)N2CCOCC2)N2CCOCC2)cc1", "inhibition": "inactive: -2.13%"},
      {"smiles": "O=[N+]([O-])c1cc(Oc2ccc([N+](=O)[O-])cc2C(F)(F)F)cc([N+](=O)[O-])c1", "inhibition": "inactive: 5.16%"},
      {"smiles": "Cc1cc(=O)[nH]c(N[N+](=O)[O-])n1", "inhibition": "inactive: -2.45%"},
      {"smiles": "O=C(OC1CN2CCC1CC2)C12CC3CC(CC(C3)C1)C2", "note": "(stereo not drawn)", "inhibition": "inactive: 1.29%"},
      {"smiles": "Cc1c2c(nc3ccccc13)SC(C(Cl)Cl)C2", "note": "(stereo not drawn)", "inhibition": "inactive: -2.06%"},
      {"smiles": "COc1cc(I)ccc1[As](=O)(O)O", "inhibition": "inactive: -1.53%"},
      {"smiles": "COc1ccc2nc(NP(=O)(c3ccccc3)c3ccccc3)sc2c1", "inhibition": "inactive: 0.29%"},
      {"smiles": "O=P1(N(CCCl)CCCl)OCCCN1CCCl", "note": "(stereo not drawn)", "inhibition": "inactive: -8.15%"},
      {"smiles": "O=P1(N(CCCl)CCCl)Nc2ccccc2N1", "inhibition": "inactive: 11.3%"},
      {"smiles": "CCCOP(=S)(Nc1nc(N)cc(=O)[nH]1)OCCC", "inhibition": "inactive: -0.87%"},
      {"smiles": "Cc1ccc(NCCc2c([N+](=O)[O-])cc([N+](=O)[O-])cc2[N+](=O)[O-])cc1", "inhibition": "inactive: 43.6%"},
      {"smiles": "Nc1cccc2c([As](=O)(O)O)cccc12", "inhibition": "inactive: -12.8%"},
      {"smiles": "CCOP(=O)(Nc1cccc2ccccc12)OCC", "inhibition": "inactive: 1.42%"},
      {"smiles": "COc1cc(C2NCCC3(OCCO3)C2(C)C)cc(OC)c1OC", "note": "(stereo not drawn)", "inhibition": "inactive: -7.35%"},
      {"smiles": "CS(=O)(=O)c1ccc(Cl)c(NC(=O)COC(=O)C(O)(c2ccccc2)c2ccccc2)c1", "inhibition": "inactive: -7.11%"},
      {"smiles": "COc1cc(C(=O)NCC2(N3CCOCC3)CCCCC2)cc(Cl)c1OC(C)C", "inhibition": "inactive: 38.2%"},
      {"smiles": "O=[As](O)(O)c1cccnc1", "inhibition": "inactive: 5.02%"},
      {"smiles": "O=C(OC1CN2CCC1CC2)c1ccc(Cl)cc1", "note": "(stereo not drawn)", "inhibition": "inactive: 5.72%"},
      {"smiles": "O=[As](O)(c1cccc(O)c1)c1cccc(O)c1", "inhibition": "inactive: -1.35%"},
      {"smiles": "Cc1cccc(OCC(=O)OC2CN3CCC2CC3)c1", "note": "(stereo not drawn)", "inhibition": "inactive: 0.47%"},
      {"smiles": "NC(=O)Nc1ccc([As](=O)(O)O)cc1", "inhibition": "inactive: -5.15%"},
      {"smiles": "CN(C(=O)Cc1ccc(Cl)c(Cl)c1)[C@H]1CC[C@@]2(CCCO2)C[C@@H]1N1CCCC1", "inhibition": "inactive: 2.18%"},
      {"smiles": "CN(C)C(=O)c1cc([N+](=O)[O-])cc2c1-c1c(cc([N+](=O)[O-])cc1[N+](=O)[O-])C2=O", "inhibition": "inactive: 4.65%"},
      {"smiles": "O=[N+]([O-])c1ccc2c(c1)nnn2O", "inhibition": "inactive: -5.3%"},
      {"smiles": "CCOP1(=S)c2c(C)nn(CCC#N)c2N=C(c2ccc(F)cc2)N1C", "note": "(stereo not drawn)", "inhibition": "inactive: 2.83%"},
      {"smiles": "CN(C(=O)Cc1ccccc1)[C@@H]1CC[C@]2(CCCO2)C[C@H]1N1CCCC1", "inhibition": "inactive: 6.43%"},
      {"smiles": "N#CCCN(C(=O)COC(=O)C(O)(c1ccccc1)c1ccccc1)c1ccc(F)cc1", "inhibition": "inactive: -10.6%"},
      {"smiles": "CS(=O)(=O)c1cc([N+](=O)[O-])c2no[n+]([O-])c2c1", "inhibition": "inactive: 0.28%"},
      {"smiles": "O=P(Nc1nccs1)(c1ccccc1)c1nc2ccccc2s1", "note": "(stereo not drawn)", "inhibition": "inactive: -13.4%"},
      {"smiles": "O=P(Nc1nccs1)(Oc1ccccc1)Oc1ccccc1", "inhibition": "inactive: -2.97%"},
      {"smiles": "CCOP1(=S)c2c(C)nn(CCC#N)c2N=C(c2ccccc2F)N1C", "note": "(stereo not drawn)", "inhibition": "inactive: -8.33%"},
      {"smiles": "Nc1ccccc1[As](=O)(O)c1ccccc1", "inhibition": "inactive: -9.64%"},
      {"smiles": "O=C(O)COc1ccc([As](=O)(O)O)cc1[N+](=O)[O-]", "inhibition": "inactive: -3.09%"},
      {"smiles": "O=P1(Nc2ncccn2)COc2ccccc2OC1", "inhibition": "inactive: -3.34%"},
      {"smiles": "O=P1(Nc2ccc(Br)cn2)COc2ccccc2OC1", "inhibition": "inactive: 1.74%"},
      {"smiles": "Cc1ccc(OCC(=O)OC2CN3CCC2CC3)cc1", "note": "(stereo not drawn)", "inhibition": "inactive: -2.46%"}
    ]}
  ]
}
